Assay: Pharmacokinetic measurement in mouse, single sc dose 30 nmol/kg, plasma ELISA
Conditions: single sc dose 30 nmol/kg

Semaglutide [reference compound]
AUC0-24 h: 0.6147 µM·h

— patent US11453711B2, “Fusion proteins of GLP-1 and GDF15 and conjugates thereof” (BEIJING QL BIOPHARMACEUTICAL CO., LTD., priority 2019, dated 2022)
